pKd: −log10 of the molar value.
Biological target: recombinant BRD4 BD2 (Homo sapiens, UniProt O60885)
Assay: FP protein saturation experiment of the fluorescent probe, BRD4 BD2
Conditions: read-out: Kd of the fluorescent probe to BRD4 BD2, probe 1.5 nM
Procedure: Fluorescence Polarization (FP) competitive binding studies were carried out using a FAM labeled fluorescent probe, see, e.g., Cpd. No. 350 of US 2014/0256706, to determine binding affinities of representative Compounds of the Disclosure for recombinant BRD4 BD1 and BRD4 BD2 proteins. Equilibrium dissociation constants (Kd) values of the fluorescent probe to BRD4 BD1 and BD2 proteins were determined from protein saturation experiments by monitoring the total fluorescence polarization of mixtures composed with the fluorescent probe at a fixed concentration and proteins with increasing concentrations up to full saturation. Serial dilutions of testing proteins were mixed with the fluorescent probe to a final volume of 200 μl in the assay buffer (100 mM phosphate buffer, pH=6.5, 0.01% Triton X-100 (Sigma, 282103) being added right before assays). Final fluorescent probe concentration was 1.5 nM for both proteins. Plates were incubated at room temperature for 30 minutes with gentle shaking to assure equilibrium. FP values in millipolarization units (mP) were measured using the Infinite M-1000 plate reader (Tecan U.S., Research Triangle Park, N.C.) in Microfluor 1 96-well, black, round-bottom plates (Thermo Scientific, Waltham, Mass.) at an excitation wavelength of 485 nm and an emission wavelength of 530 nm. […]

COc1cc2c(cc1-c1c(C)noc1C)[nH]c1nc(C(=O)NC3CCN(CCCNC(=O)c4ccc(-c5c6ccc(=O)cc-6oc6cc(O)ccc56)c(C(=O)O)c4)CC3)nc(-c3ccnc4ccc(F)cc34)c12
pKd: 8.52
